Molecular target: 5-hydroxytryptamine receptor 1A (Rattus norvegicus, UniProt P19327)
Experiment: Displacement of [3H]8-OH-DPAT from 5HT1A receptor in Rattus norvegicus (rat) cerebral cortex after 15 min by filter binding assay
Format: tissue-based

Chains of the proteins cited; added tags and fusions are not shown.
UniProt P19327, whole entry: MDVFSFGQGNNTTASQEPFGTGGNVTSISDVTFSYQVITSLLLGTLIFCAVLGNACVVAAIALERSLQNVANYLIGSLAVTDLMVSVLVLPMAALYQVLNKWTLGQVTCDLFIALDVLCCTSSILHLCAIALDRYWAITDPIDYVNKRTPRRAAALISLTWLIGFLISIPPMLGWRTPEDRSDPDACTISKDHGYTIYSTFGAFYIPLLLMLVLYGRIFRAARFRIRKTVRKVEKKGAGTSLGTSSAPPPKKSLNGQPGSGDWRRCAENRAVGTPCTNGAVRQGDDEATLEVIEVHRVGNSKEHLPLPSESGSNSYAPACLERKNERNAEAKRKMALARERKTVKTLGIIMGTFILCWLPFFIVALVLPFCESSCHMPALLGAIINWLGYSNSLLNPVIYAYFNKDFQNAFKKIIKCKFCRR

NCCc1c[nH]c2ccc(O)cc12 [SEROTONIN]
Ki: 9 nM
